Experimental findings from ChEMBL document CHEMBL1133765, “QSAR model for drug human oral bioavailability” (J Med Chem, 2000) are described below.

This data set in a line: physchem.

The pKa is the negative logarithm of the acid dissociation constant. A higher pKa goes with a weaker acid or stronger base. The molecule `Cc1nc2n(c(=O)c1CCN1CCC(c3noc4cc(F)ccc34)CC1)CCCC2` [RISPERIDONE] yielded a pKa of 8.7.
